Data as given in ChEMBL document CHEMBL3351906, “Bioactive triterpenoid saponins and phenolic compounds against glioma cells” (Bioorg Med Chem Lett, 2014).

How the values were obtained:
C6 = test: Inhibition of cell proliferation of rat C6 cells assessed as cell viability after 72 hrs by sulforhodamine B assay; format: functional, cell-based
U-251 = test: Inhibition of cell proliferation of human U251 cells assessed as cell viability after 72 hrs by sulforhodamine B assay; format: functional, cell-based

| Compound | inhibition (C6) | inhibition (U-251) |
| --- | --- | --- |
| C=C[C@@](C)(O)CC/C=C(\C)C(=O)OC[C@H]1O[C@@H](OC(=O)[C@]23CCC(C)(C)C[C@H]2C2=CC[C@@H]4[C@@]5(C)CC[C@H](O[C@@H]6O[C@H](CO[C@@H]7OC[C@H](O)[C@H](O)[C@H]7O[C@@H]7OC[C@@H](O)[C@H](O)[C@H]7O)[C@@H](O)[C@H](O)[C@H]6O)C(C)(C)[C@@H]5CC[C@@]4(C)[C@]2(C)CC3)[C@H](O[C@@H]2O[C@@H](C)[C@H](O[C@@H]3OC[C@@H](O)[C@H](O[C@@H]4OC[C@@H](O)[C@H](O)[C@H]4O)[C@H]3O)[C@@H](O)[C@H]2O)[C@@H](O)[C@@H]1O | Dose-dependent effect | Dose-dependent effect |
| C=C[C@@](C)(O)CC/C=C(\CO)C(=O)OC[C@H]1O[C@@H](OC(=O)[C@]23CCC(C)(C)C[C@H]2C2=CC[C@@H]4[C@@]5(C)CC[C@H](O[C@@H]6O[C@H](CO[C@@H]7OC[C@H](O)[C@H](O)[C@H]7O[C@@H]7OC[C@@H](O)[C@H](O)[C@H]7O)[C@@H](O)[C@H](O)[C@H]6O)C(C)(C)[C@@H]5CC[C@@]4(C)[C@]2(C)C[C@H]3O)[C@H](O[C@@H]2O[C@@H](C)[C@H](O[C@@H]3OC[C@@H](O)[C@H](O[C@@H]4OC[C@@H](O)[C@H](O)[C@H]4O)[C@H]3O)[C@@H](O)[C@H]2O[C@@H]2O[C@H](CO)[C@H](O)[C@H](O)[C@H]2O)[C@@H](O)[C@@H]1O | Dose-dependent effect | Dose-dependent effect |
| C=CC(C)(O)CC/C=C(\CO)C(=O)O[C@H]1[C@H](OC[C@H]2O[C@@H](OC(=O)[C@]34CCC(C)(C)C[C@H]3C3=CC[C@@H]5[C@@]6(C)CC[C@H](O[C@@H]7O[C@H](CO[C@@H]8OC[C@H](O)[C@H](O)[C@H]8O[C@@H]8OC[C@@H](O)[C@H](O)[C@H]8O)[C@@H](O)[C@H](O)[C@H]7O)C(C)(C)[C@@H]6CC[C@@]5(C)[C@]3(C)C[C@H]4O)[C@H](O[C@@H]3O[C@@H](C)[C@H](O[C@@H]4OC[C@@H](O)[C@H](O[C@@H]5OC[C@@H](O)[C@H](O)[C@H]5O)[C@H]4O)[C@@H](O)[C@H]3O)[C@@H](O)[C@@H]2O)O[C@@H](C)[C@H](O)[C@H]1OC(=O)/C(C)=C/CC[C@@](C)(O)C=C (some centres undefined) | Dose-dependent effect | Dose-dependent effect |
| C/C=C(\C)C(=O)O[C@H]1[C@H](O)[C@]2(COC(C)=O)[C@H](O)C[C@]3(C)C(=CC[C@@H]4[C@@]5(C)CC[C@H](O[C@@H]6O[C@H](C(=O)OC)[C@@H](O[C@@H]7O[C@H](CO)[C@@H](O)[C@H](O)[C@H]7O)[C@H](O)[C@H]6O[C@@H]6O[C@H](CO)[C@@H](O)[C@H](O)[C@H]6O)[C@](C)(CO)[C@@H]5CC[C@]43C)[C@@H]2CC1(C)C | Dose-dependent effect | Dose-dependent effect |
| C=CC(C)(O)CC/C=C(\CO)C(=O)O[C@H]1[C@H](O)[C@@H](COC(=O)/C(C)=C/CC[C@](C)(O)C=C)O[C@@H](OC(=O)[C@]23CCC(C)(C)C[C@H]2C2=CC[C@@H]4[C@@]5(C)CC[C@H](O[C@@H]6O[C@H](CO[C@@H]7OC[C@H](O)[C@H](O)[C@H]7O[C@@H]7OC[C@@H](O)[C@H](O)[C@H]7O)[C@@H](O)[C@H](O)[C@H]6O)C(C)(C)[C@@H]5CC[C@@]4(C)[C@]2(C)CC3)[C@@H]1O[C@@H]1O[C@@H](C)[C@H](O[C@@H]2OC[C@@H](O)[C@H](O[C@@H]3OC[C@@H](O)[C@H](O)[C@H]3O)[C@H]2O)[C@@H](O)[C@H]1O (some centres undefined) | Dose-dependent effect | Dose-dependent effect |
| CC(C)=CCC[C@@H](C)[C@H]1CC[C@]2(C)[C@@H]1[C@H](O)C[C@@H]1[C@@]3(C)CC[C@H](O)C(C)(C)[C@@H]3[C@@H](O)C[C@]12C | Dose-dependent effect | Dose-dependent effect |
| C/C=C(/C)C(=O)O[C@H]1[C@H](O)[C@]2(COC(C)=O)[C@H](O)C[C@]3(C)C(=CC[C@@H]4[C@@]5(C)CC[C@H](O[C@@H]6O[C@H](C(=O)OC)[C@@H](O[C@@H]7O[C@H](CO)[C@@H](O)[C@H](O)[C@H]7O)[C@H](O)[C@H]6O[C@@H]6O[C@H](CO)[C@@H](O)[C@H](O)[C@H]6O)[C@](C)(CO)[C@@H]5CC[C@]43C)[C@@H]2CC1(C)C | Dose-dependent effect | Dose-dependent effect |
| CC(=O)Oc1ccc(CCOC(=O)CCc2ccc(OC(C)=O)c(OC(C)=O)c2)cc1OC(C)=O | Dose-dependent effect | Dose-dependent effect |
| CC(=O)Oc1cc(CCOC(=O)CCc2ccc(O)c(OC(C)=O)c2)ccc1O | Dose-dependent effect | Dose-dependent effect |
| O=c1c(O)c(-c2ccc(O)c(O)c2)oc2cc(O)cc(O)c12 [QUERCETIN] | Dose-dependent effect | Dose-dependent effect |
| C/C=C(/C)C(=O)O[C@H]1[C@H](O)[C@]2(COC(C)=O)[C@H](O)C[C@]3(C)C(=CC[C@@H]4[C@@]5(C)CC[C@H](O[C@@H]6O[C@H](C(=O)O)[C@@H](O[C@@H]7O[C@H](CO)[C@@H](O)[C@H](O)[C@H]7O)[C@H](O)[C@H]6O[C@@H]6O[C@H](CO)[C@@H](O)[C@H](O)[C@H]6O)[C@](C)(CO)[C@@H]5CC[C@]43C)[C@@H]2CC1(C)C [ISOESCIN IB] | Dose-dependent effect | Dose-dependent effect |
| C/C=C(\C)C(=O)O[C@H]1[C@H](O)[C@]2(COC(C)=O)[C@H](O)C[C@]3(C)C(=CC[C@@H]4[C@@]5(C)CC[C@H](O[C@@H]6O[C@H](C(=O)O)[C@@H](O[C@@H]7O[C@H](CO)[C@@H](O)[C@H](O)[C@H]7O)[C@H](O)[C@H]6O[C@@H]6O[C@H](CO)[C@@H](O)[C@H](O)[C@H]6O)[C@](C)(CO)[C@@H]5CC[C@]43C)[C@@H]2CC1(C)C [ISOESCIN IA] | Dose-dependent effect | Dose-dependent effect |
| C=CC(C)(O)CC/C=C(\CO)C(=O)OC[C@H]1O[C@@H](OC(=O)[C@]23CCC(C)(C)C[C@H]2C2=CC[C@@H]4[C@@]5(C)CC[C@H](O[C@@H]6O[C@H](CO[C@@H]7OC[C@H](O)[C@H](O)[C@H]7O[C@@H]7OC[C@@H](O)[C@H](O)[C@H]7O)[C@@H](O)[C@H](O)[C@H]6O)C(C)(C)[C@@H]5CC[C@@]4(C)[C@]2(C)CC3)[C@H](O[C@@H]2O[C@@H](C)[C@H](O[C@@H]3OC[C@@H](O)[C@H](O[C@@H]4OC[C@@H](O)[C@H](O)[C@H]4O)[C@H]3O)[C@@H](O)[C@H]2O)[C@@H](O)[C@@H]1O (some centres undefined) | Dose-dependent effect | Dose-dependent effect |
| COc1cc(CCC(=O)OCCc2ccc(O)c(O)c2)ccc1O | Dose-dependent effect | Dose-dependent effect |
| O=C(CCc1ccc(O)c(O)c1)OCCc1ccc(O)c(O)c1 | Dose-dependent effect | Dose-dependent effect |
| Cn1nnc2c(C(N)=O)ncn2c1=O [TEMOZOLOMIDE] | Dose-dependent effect | Dose-dependent effect |
| C=C[C@@](C)(O)CC/C=C(\C)C(=O)O[C@H]1[C@H](OC[C@H]2O[C@@H](OC(=O)[C@]34CCC(C)(C)C[C@@H]3C3=CC[C@@H]5[C@@]6(C)CC[C@H](O[C@@H]7O[C@H](CO[C@@H]8OC[C@H](O)[C@H](O)[C@H]8O[C@@H]8OC[C@@H](O)[C@H](O)[C@H]8O)[C@@H](O)[C@H](O)[C@H]7O)C(C)(C)[C@@H]6CC[C@@]5(C)[C@]3(C)C[C@H]4O)[C@H](O[C@@H]3O[C@@H](C)[C@H](O[C@@H]4OC[C@@H](O)[C@H](O[C@@H]5OC[C@@H](O)[C@H](O)[C@H]5O)[C@H]4O)[C@@H](O)[C@H]3O)[C@@H](O)[C@@H]2O)O[C@@H](C)[C@H](O)[C@H]1OC(=O)/C(=C/CC[C@](C)(O)C=C)CO [GLEDITSIA SAPONIN C] | Dose-dependent effect | Dose-dependent effect |
